Test results taken from BindingDB's records for US9315514.

What was measured:
Settings in all cases: pH 7.4
[1] = molecular target: T1, Kappa-type opioid receptor (Homo sapiens, UniProt P41145)
[2] = molecular target: T1, Kappa-type opioid receptor; remark: listed apart in the source
Mu-type opioid receptor = Mu-type opioid receptor (Homo sapiens, UniProt P35372)

Row | SMILES | EC50 [1] | Ki [2] | EC50 (Mu-type opioid receptor)
1 | COc1ccc2c3c1O[C@H]1[C@@]45C=C[C@@]6(C[C@@H]4[C@@](C)(C(C)(C)C)OCO5)[C@@H](C2)N(CC2CC2)CC[C@]316 | 593 nM | – | –
2 | COc1ccc2c3c1O[C@H]1[C@@]45CC[C@@]6(C[C@@H]4[C@@](C)(C(C)(C)C)OCO5)[C@@H](C2)N(CC2CC2)CC[C@]316 | – | 7.22 nM | 85.4 nM
